Experimental data: paper PMC6471618, “Comparison of the Sulfonamide Inhibition Profiles of the α-Carbonic Anhydrase Isoforms (SpiCA1, SpiCA2 and SpiCA3) Encoded by the Genome of the Scleractinian Coral Stylophora pistillata” (Marine Drugs, 2019)

By UniProt entry, the sequences of proteins in these tests, tags left out.
UniProt A0A1B0Y357, entry or part of it: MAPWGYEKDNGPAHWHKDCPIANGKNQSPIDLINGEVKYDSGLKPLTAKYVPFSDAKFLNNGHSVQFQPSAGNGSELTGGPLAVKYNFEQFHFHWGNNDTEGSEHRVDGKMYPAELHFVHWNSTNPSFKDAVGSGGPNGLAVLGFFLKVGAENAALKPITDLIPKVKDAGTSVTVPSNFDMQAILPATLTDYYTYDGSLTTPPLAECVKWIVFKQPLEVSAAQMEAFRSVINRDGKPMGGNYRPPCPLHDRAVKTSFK

Target: SpiCA3 (Stylophora pistillata, UniProt A0A1B0Y357)
Format: biochemical
Settings: authors' grading of the KI values of Table 1

## CCN[C@H]1C[C@H](C)S(=O)(=O)c2sc(S(N)(=O)=O)cc21 [DZA, Dorzolamide]
  SpiCA3 inhibition, in words: low potency inhibitors
